# Ab-14 light chain CDR variants: yeast mating affinities

Values reported by Li et al. 2023, doi:10.1038/s41467-023-39022-2 (FLAb copy).

Target peptide (SARS-CoV-2 spike, HR2 region): PDVDLGDISGINAS

The variants keep the heavy chain, the linker and the frameworks of Ab-14 (scFv order VH, the linker GGGGSGGGGSGGGGS, VL).
VH: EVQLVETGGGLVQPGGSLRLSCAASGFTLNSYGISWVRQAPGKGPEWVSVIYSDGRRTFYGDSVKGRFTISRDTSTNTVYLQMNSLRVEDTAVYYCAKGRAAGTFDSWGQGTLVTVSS
VL: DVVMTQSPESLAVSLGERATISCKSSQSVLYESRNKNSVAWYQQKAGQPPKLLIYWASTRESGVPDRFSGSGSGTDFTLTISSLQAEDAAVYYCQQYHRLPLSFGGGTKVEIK

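The variants were designed computationally from a first round of random CDR variants and then made and measured. Their group label is 14L_En_Gibbs (En: ensemble of fine-tuned language models; Gibbs: Gibbs sampling). AlphaSeq pools MATa yeast showing the antibodies with MATalpha yeast showing the peptide. Binding brings cells together so that they mate, and sequencing counts the barcode pairs among the diploids. The ratio of observed to expected reads was calibrated, replicate by replicate, on BCL2-family standards whose Kd was known from biolayer interferometry. There are six technical replicates.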

Each variant is given by its three light chain CDRs, as the data file delimits them; those of the parent are KSSQSVLYESRNKNSVA, WASTRES, QQYHRLPLS.
Values are log10 of the apparent Kd in nM; lower means stronger binding.
Where no diploid with the target was found in that replicate, the entry reads "ND": below detection, most likely a poor binder, though not proof of it.
Values of this round are not directly comparable with the first-round values of the same sequences.
Of ten entries with the parent sequence, four were seen in most replicates (averages 0.34 to 2.37), three in one and three in none, so single entries are noisy.
The authors' rule: three or more of the six replicates give a measured affinity, fewer mean a poor binder.
Background: pairings of all light chain designs with three empty control strains gave a value in 4% of cases (median 2.64, 5th percentile 1.59). Values in that range, when seen in few replicates, are hard to tell from nonspecific mating. The control count says in how many pairings with the empty strains this scFv gave a signal, with their mean in brackets.

CDR-L1,CDR-L2,CDR-L3,"log10 Kd, replicates",empty controls
NLSYLQGEPTNSVNNVA,QTSKRAH,QQYQRLPLC,0.52 / 0.64 / 0.45 / 0.70 / 0.40 / 0.87,2 of 18 (2.87)
VMFGGLNWGNIEHQAIA,NVDVREK,QQYHRLPLQ,2.43 / 2.05 / 1.73 / 1.87 / 1.94 / 1.96,1 of 18 (2.85)
ALSQNGFQQHGMRDSIA,HSDQRLA,QQYYHLPLA,0.17 / 0.27 / 0.59 / 0.03 / 0.30 / 0.43,1 of 18 (2.17)
MVTLQLRNGHELQNPIA,EASHRAA,QQYAHLPLG,0.64 / 0.33 / 0.71 / 0.80 / 0.79 / 0.63,1 of 18 (2.13)
YLSMMEQHLGDMMHNVA,DANVAKM,QDYFRLPLM,ND / ND / ND / ND / ND / ND,0 of 18
TIDDEMPNHGFHWNSIA,GVSTVKQ,QQYDRLPLS,1.60 / 0.92 / 1.22 / 0.67 / 1.06 / 1.17,0 of 18
VFSGLFQYDEQSYNSVA,EASLSNT,QQYISLPLS,ND / ND / ND / ND / ND / ND,0 of 18
TLHANIEYGGGTWKSIA,DNTQRAD,QYYQRLPLG,ND / ND / 2.98 / 3.42 / ND / ND,1 of 18 (2.64)
QFDLFMNEQGMQNAAIA,GATNRHT,QQYQKLPLS,2.12 / 1.47 / 1.08 / 0.85 / 1.68 / 2.09,0 of 18
QFDQAYRVGALWTDSIA,HASMRVQ,QCYNRLPLM,1.25 / 1.25 / 0.93 / 1.01 / 1.87 / 2.02,1 of 18 (2.78)
RMNKFMSGITEAKNSVA,GAEHLAQ,QSYHRLPLS,0.63 / 0.47 / 0.33 / 0.41 / 0.39 / 0.81,0 of 18
KLRLHNLMFYENENSIA,DVSNRAY,QQYYRLPLN,1.39 / 1.61 / 1.29 / 1.61 / 1.90 / 1.44,0 of 18
KLGEQERMNGMANKNVA,AMNTRVD,QEYHRLPLI,0.31 / 0.23 / 0.16 / 0.25 / 0.30 / 0.43,0 of 18
NVDISQNTNYNHKANVA,DHDERVI,QQYSRLPLS,1.07 / 1.22 / 0.49 / 0.98 / 0.81 / 1.01,1 of 18 (3.22)
SIQNLGMVPSVWKNSIA,DVTIVED,QQYSRLPLL,0.88 / 0.71 / 0.92 / 0.79 / 0.95 / 1.01,1 of 18 (1.78)
NLNTYYYGGTLNTDNIA,HGNMVEA,QQYDRLPLQ,0.95 / 0.46 / 0.26 / 0.33 / 0.56 / 0.47,2 of 18 (2.13)
TVKMELEMFAQDKHSVA,EAVERAS,QQYHRLPLG,ND / ND / ND / ND / ND / ND,0 of 18
HSSPSWLYDSRNKNHVA,DAMTRES,QQYHRLPLS,-0.38 / 0.30 / -0.37 / -0.29 / -0.31 / -0.11,0 of 18
RLRFQQLGMSYDANHIA,GATNRIK,QQYGRLPLT,1.10 / 0.64 / 1.39 / 1.12 / 1.29 / 1.35,0 of 18
HLHTINYTEGIGTNSIA,DANLHVT,QQYFRLPIM,1.18 / 1.26 / 1.31 / 1.20 / 0.86 / 1.80,1 of 18 (2.12)
QFDLHHKQIETIESAVA,ETSVRAA,QSYDRLPLS,1.24 / 0.39 / 0.59 / 0.53 / 0.62 / 0.58,3 of 18 (3.25)
KFNISKEGVTSEGKSIA,GAQTIDE,QQYDRLPLA,0.86 / 1.05 / 0.93 / 2.13 / 1.23 / 1.19,0 of 18
NLSDGDMYHNATRSAVA,NTTMRDF,QQYNRLPLD,0.73 / 1.57 / 1.79 / 0.73 / 0.93 / 0.81,1 of 18 (3.13)
NVDISANVGYMHKAAVA,EHDMRVG,QQYYRLPLA,0.31 / 0.10 / 0.09 / 0.17 / 0.26 / 0.41,1 of 18 (2.32)
KLAQGIYEPWRKSHNIA,EASHVCD,QQYERLPLE,0.30 / -0.01 / 0.04 / -0.10 / 0.28 / 0.08,0 of 18
KLGNQEQMNGMANQNVA,AMNTVVD,QEYHRLPLI,0.68 / 0.55 / 0.50 / 0.12 / 0.56 / 0.29,3 of 18 (2.94)
VMQIQSDGMLNTKHNVA,GVDERLE,QQYFRLPLL,0.13 / 0.03 / -0.15 / -0.32 / -0.19 / 0.04,5 of 18 (2.18)
QVTAFYEHLKDQQQAMA,NATMRDQ,QQYERLPLS,0.58 / 0.50 / 0.46 / 0.25 / 0.52 / 0.75,1 of 18 (2.61)
KITFQGMSSDAHQYSIA,QTNVYSQ,QQYNRLPLD,ND / ND / ND / ND / ND / ND,0 of 18
HVSSMLMAGGGIYNSVA,GNKVLER,QQYMRLPLM,0.58 / 1.29 / 0.89 / 0.71 / 0.81 / 0.56,1 of 18 (2.13)
QFARAMYHGLNDNQSIA,DAMTYIK,QQYSRLPLF,ND / ND / ND / ND / ND / ND,0 of 18
MIQYGQERDSEHYNSIA,NDHEVSK,QQYYRLPLV,ND / 1.89 / 1.69 / 2.35 / 2.34 / 2.11,0 of 18
KVDMGELPNGFNRSHVA,QAEVRAP,QQYWRLPLE,0.89 / 1.85 / 1.44 / 1.16 / 1.23 / 1.10,0 of 18

4 of these entries, quoted again:

CDR-L1	CDR-L2	CDR-L3	log10 Kd, replicates	empty controls
TVKMELEMFAQDKHSVA	EAVERAS	QQYHRLPLG	ND / ND / ND / ND / ND / ND	0 of 18
NVDISANVGYMHKAAVA	EHDMRVG	QQYYRLPLA	0.31 / 0.10 / 0.09 / 0.17 / 0.26 / 0.41	1 of 18 (2.32)
VMQIQSDGMLNTKHNVA	GVDERLE	QQYFRLPLL	0.13 / 0.03 / -0.15 / -0.32 / -0.19 / 0.04	5 of 18 (2.18)
SIQNLGMVPSVWKNSIA	DVTIVED	QQYSRLPLL	0.88 / 0.71 / 0.92 / 0.79 / 0.95 / 1.01	1 of 18 (1.78)